# Test results published in patent US9637472B2, “Substituted 6,5-fused bicyclic heteroaryl compounds” (Epizyme, Inc., priority 2011, dated 2017).
# Protein sequences, listed by entry. Tags and fused reporters are not part of them. Chains listed by the source or under a name are the forms on record and can include a tag or linker.
# UniProt Q15910, with tags, fused parts or gaps limits assumed: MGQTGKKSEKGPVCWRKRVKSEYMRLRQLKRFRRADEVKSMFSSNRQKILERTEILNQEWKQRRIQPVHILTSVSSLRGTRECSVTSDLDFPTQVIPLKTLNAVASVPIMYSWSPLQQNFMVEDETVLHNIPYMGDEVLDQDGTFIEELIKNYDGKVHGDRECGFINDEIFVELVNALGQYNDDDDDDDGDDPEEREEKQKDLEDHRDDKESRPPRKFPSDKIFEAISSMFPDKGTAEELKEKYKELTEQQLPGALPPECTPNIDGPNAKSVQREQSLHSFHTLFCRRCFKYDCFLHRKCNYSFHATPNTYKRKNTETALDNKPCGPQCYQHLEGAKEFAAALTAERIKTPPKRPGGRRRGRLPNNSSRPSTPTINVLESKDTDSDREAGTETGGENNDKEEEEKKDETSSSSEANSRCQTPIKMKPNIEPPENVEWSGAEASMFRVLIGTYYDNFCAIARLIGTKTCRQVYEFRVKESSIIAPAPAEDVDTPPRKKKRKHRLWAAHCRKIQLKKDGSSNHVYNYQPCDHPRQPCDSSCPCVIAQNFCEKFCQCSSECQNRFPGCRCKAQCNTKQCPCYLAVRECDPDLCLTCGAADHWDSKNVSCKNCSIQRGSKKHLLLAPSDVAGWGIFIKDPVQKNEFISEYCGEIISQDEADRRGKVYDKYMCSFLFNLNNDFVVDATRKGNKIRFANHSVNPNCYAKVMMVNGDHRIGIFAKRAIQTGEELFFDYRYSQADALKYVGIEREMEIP
# UniProt Q09028, whole entry partner: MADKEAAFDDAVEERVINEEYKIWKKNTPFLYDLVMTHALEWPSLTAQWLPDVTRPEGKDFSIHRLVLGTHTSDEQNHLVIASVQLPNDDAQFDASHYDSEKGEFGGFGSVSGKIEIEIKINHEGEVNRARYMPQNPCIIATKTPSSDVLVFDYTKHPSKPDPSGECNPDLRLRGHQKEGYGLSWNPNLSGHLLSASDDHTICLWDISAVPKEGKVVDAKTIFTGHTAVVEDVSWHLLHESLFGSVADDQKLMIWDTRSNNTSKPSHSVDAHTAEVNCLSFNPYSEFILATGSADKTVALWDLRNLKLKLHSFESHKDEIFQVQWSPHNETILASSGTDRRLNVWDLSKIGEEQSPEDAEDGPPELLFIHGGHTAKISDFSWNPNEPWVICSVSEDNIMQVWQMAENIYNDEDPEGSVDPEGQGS
# UniProt Q15022, whole entry partner: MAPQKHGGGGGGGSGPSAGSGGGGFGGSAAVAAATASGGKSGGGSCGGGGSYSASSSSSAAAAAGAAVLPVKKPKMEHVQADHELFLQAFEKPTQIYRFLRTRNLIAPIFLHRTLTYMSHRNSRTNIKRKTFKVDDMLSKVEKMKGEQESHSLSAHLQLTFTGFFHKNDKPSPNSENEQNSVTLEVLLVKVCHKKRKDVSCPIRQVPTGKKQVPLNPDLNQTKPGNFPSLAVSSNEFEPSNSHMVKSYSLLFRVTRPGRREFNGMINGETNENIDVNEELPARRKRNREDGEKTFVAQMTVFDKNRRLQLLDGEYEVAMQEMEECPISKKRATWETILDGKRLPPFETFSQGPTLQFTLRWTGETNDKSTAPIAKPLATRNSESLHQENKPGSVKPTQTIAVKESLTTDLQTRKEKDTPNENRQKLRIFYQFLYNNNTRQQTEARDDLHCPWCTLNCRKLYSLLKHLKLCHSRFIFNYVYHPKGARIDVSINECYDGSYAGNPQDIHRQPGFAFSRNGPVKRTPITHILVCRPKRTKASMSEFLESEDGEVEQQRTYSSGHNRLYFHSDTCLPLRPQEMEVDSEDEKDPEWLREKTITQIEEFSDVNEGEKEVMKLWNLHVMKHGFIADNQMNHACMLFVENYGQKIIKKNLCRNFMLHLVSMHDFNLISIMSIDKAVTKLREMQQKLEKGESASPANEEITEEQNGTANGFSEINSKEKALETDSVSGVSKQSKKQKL
# UniProt O75530, whole entry partner: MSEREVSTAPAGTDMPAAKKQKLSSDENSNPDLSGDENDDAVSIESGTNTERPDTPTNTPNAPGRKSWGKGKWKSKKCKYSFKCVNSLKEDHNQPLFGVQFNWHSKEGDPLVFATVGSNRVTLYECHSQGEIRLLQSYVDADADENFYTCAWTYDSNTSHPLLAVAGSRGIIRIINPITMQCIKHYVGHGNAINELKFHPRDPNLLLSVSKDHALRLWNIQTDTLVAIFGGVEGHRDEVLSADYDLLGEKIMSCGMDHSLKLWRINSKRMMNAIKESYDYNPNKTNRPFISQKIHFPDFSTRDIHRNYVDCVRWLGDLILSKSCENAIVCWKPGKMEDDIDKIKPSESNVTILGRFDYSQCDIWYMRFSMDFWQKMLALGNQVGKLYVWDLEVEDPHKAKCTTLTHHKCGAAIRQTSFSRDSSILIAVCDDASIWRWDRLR
# Biological target: EZH2 (Homo sapiens (Human), UniProt Q15910)
# Assay: PRC2 enzyme assay on peptide substrates
# Assay type: biochemical
# Settings: read-out: EZH2 IC50; PRC2 enzyme assays on peptide substrates; 4 nM enzyme, 30 min preincubation at 25° C.
row,Compound,IC50 [µM]
1,Cc1ccc(CNC(=O)c2cc(-c3ccc4c(c3)OCCO4)nc3c2cnn3C(C)C)c(=O)[nH]1,10 to 50
2,Cc1cc(C)c(CNC(=O)c2cc(-c3ccc4c(c3)OCCO4)nc3c2cnn3C(C)C)c(=O)[nH]1,0.3 to 1
3,Cc1cc(C)c(CNC(=O)c2cc(-c3ccc4c(c3)OCO4)nc3c2cnn3C(C)C)c(=O)[nH]1,0.3 to 1
4,COc1cccc(-c2cc(C(=O)NCc3c(C)cc(C)[nH]c3=O)c3cnn(C(C)C)c3n2)c1,10 to 50
5,Cc1cc(C)c(CNC(=O)c2cc(-c3cccc(CO)c3)nc3c2cnn3C(C)C)c(=O)[nH]1,10 to 50
6,Cc1cc(C)c(CNC(=O)c2cc(-c3ccccc3C)nc3c2cnn3C(C)C)c(=O)[nH]1,3 to 10
7,Cc1cc(C)c(CNC(=O)c2cc(-c3ccc4c(c3)OCCO4)nc3c2cnn3C(C)(C)C)c(=O)[nH]1,10 to 50
8,Cc1cc(C)c(CNC(=O)c2cc(-c3cccc(N(C)C)c3)nc3c2cnn3C(C)C)c(=O)[nH]1,10 to 50
9,CC(=O)Nc1cccc(-c2cc(C(=O)NCc3c(C)cc(C)[nH]c3=O)c3cnn(C(C)C)c3n2)c1,0.3 to 1
10,Cc1cc(C(=O)NCc2c(C)cc(C)[nH]c2=O)c2cnn(C(C)C)c2n1,3 to 10

# The next lines start with the values.
row,IC50 [µM],Compound
1,3 to 10,Cc1cc(C)c(CNC(=O)c2cc(-c3ccc(C(C)(C)C)cc3)nc3c2cnn3C(C)C)c(=O)[nH]1
2,10 to 50,Cc1cc(C)c(CNC(=O)c2cc(-c3ccc(F)cc3)nc3c2cnn3C(C)C)c(=O)[nH]1
3,0.3 to 1,Cc1cc(C)c(CNC(=O)c2cc(-c3ccc(C(N)=O)cc3)nc3c2cnn3C(C)C)c(=O)[nH]1
4,0.3 to 1,Cc1cc(C)c(CNC(=O)c2cc(-c3ccc(C#N)cc3)nc3c2cnn3C(C)C)c(=O)[nH]1
5,10 to 50,CCOc1ccc(-c2cc(C(=O)NCc3c(C)cc(C)[nH]c3=O)c3cnn(C(C)C)c3n2)cc1
6,10 to 50,CC(=O)c1cccc(-c2cc(C(=O)NCc3c(C)cc(C)[nH]c3=O)c3cnn(C(C)C)c3n2)c1
7,0.3 to 1,Cc1cc(C)c(CNC(=O)c2cc(-c3ccc(S(C)(=O)=O)cc3)nc3c2cnn3C(C)C)c(=O)[nH]1
8,10 to 50,Cc1cc(C)c(CNC(=O)c2cc(-c3ccc(OC(C)C)cc3)nc3c2cnn3C(C)C)c(=O)[nH]1
9,10 to 50,CC(=O)c1ccc(-c2cc(C(=O)NCc3c(C)cc(C)[nH]c3=O)c3cnn(C(C)C)c3n2)cc1
10,10 to 50,COc1ccc(-c2cc(C(=O)NCc3c(C)cc(C)[nH]c3=O)c3cnn(C(C)C)c3n2)cc1
